Tested on: alpha 2 receptor
Details: applied IP

Clc1ccc2nsnc2c1NC1=NCCN1 [Tizanidine, tizanidine]
concentration at which therapeutic effects begin: about 100 micrograms/kg

From patent publication US20040116436A1, “Treatment of dementia and parkinson's disease” (priority 2002, published 2004)
